Data taken from ChEMBL document CHEMBL1141078, “Discovery of potent, nonsystemic apical sodium-codependent bile acid transporter inhibitors (Part 1)” (J Med Chem, 2005).

Biological target: T1, Ileal sodium/bile acid cotransporter (Homo sapiens, UniProt Q12908)
T1 sequence (Q12908 whole entry): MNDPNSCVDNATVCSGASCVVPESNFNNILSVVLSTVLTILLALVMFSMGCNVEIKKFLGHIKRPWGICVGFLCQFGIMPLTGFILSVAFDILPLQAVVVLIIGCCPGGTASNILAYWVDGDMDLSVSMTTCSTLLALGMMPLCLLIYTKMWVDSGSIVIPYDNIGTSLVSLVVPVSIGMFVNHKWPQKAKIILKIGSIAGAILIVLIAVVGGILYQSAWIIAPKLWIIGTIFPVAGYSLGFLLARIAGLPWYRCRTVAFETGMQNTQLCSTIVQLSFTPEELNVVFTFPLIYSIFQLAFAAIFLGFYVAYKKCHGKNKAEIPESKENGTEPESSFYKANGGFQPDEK
Test: In vitro inhibition of ASBT mediated uptake of [14C]taurocholate (5 uM) in Baby hamster cells expressing human IBAT
Assay type: cell-based
Method in brief: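 BHK cells stably transfected with human IBAT cDNA (H14) were seeded 24–72 h before assay at cell densities adjusted to that interval. Cells were washed, then incubated for 2 h at 37 °C in DMEM (4.5 g/L glucose, 0.2% fatty-acid-free BSA) with test compound and [14C]taurocholate. Wells were washed with cold PBS containing BSA and then with PBS alone. Cell-associated radioactivity was measured by scintillation counting, and IC50 values were derived.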

Work on `CCCC[C@]1(CC)CS(=O)(=O)c2ccc(NC(=O)OC(C)(C)C)cc2[C@@H](c2ccccc2)[C@H]1O` yielded an IC50 of 1300 nM.
